The results in this text go back to PubChem BioAssay AID651661 (Broad Institute, 2012).

The list shows a part of the results, in another mix than the full data. Active and inactive are the calls of the source.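 Rule for the calls: active = mean inhibition of at least 50% after viability correction, with every replicate also passing that limit; inconclusive = mean reaches 50% but only one of two replicates passes; inactive = the rest.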

The test can be described thus: EWS/Fli-driven NR0B1 reporter inhibitors, primary screen, A673 cells, NR0B1 luciferase, luminescence, MLPCN library (AID 651661).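 Note: firefly luciferase signal divided by Alamar Blue viability fluorescence both relative to DMSO.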 To be noted: viability-normalised, at 12.6 µM, hits give high values.
What is called inhibition is the change of the read-out against control, counted positive when it falls. Take `CN1CCC(Nc2ccc(F)c(Cl)c2)CC1`: the inhibition is inactive: -0.857%.

With `NN(c1ccccc1)C1CCN(CCc2ccccc2)CC1`, the inhibition was inactive: -3.84%.

On to `O=C(O)C1(Nc2ccccc2)CCN(Cc2ccccc2)CC1`, for which the inhibition is inactive: -1.31%.

For `CC(C)(C)OC(=O)N1CCC(Nc2ccccc2)CC1`, the inhibition was inactive: 5.5%.

With `O=c1[nH]c2ccccc2n1C1CCN(C(c2cc3ccccc3o2)c2nnnn2C2CCCC2)CC1` (stereo not drawn), the inhibition was inactive: -16.6%.

Regarding `CCCOc1ccc(C(=O)NCC2(N(C)C)CCCCC2)cc1`, the inhibition is inactive: 4.77%.

For `COc1cccc(C(=O)N(c2cc(C)cc(C)c2)C2CCN(C(=O)OC(C)(C)C)CC2)c1`, the inhibition is inactive: 8.12%.

Regarding `COc1cc(OC)cc(C(=O)NCC2(N3CCOCC3)CCCCC2)c1`, the inhibition is inactive: 8.32%.

Consider `COc1cccc(C(c2nnnn2C2CCCC2)N2CCC(n3c(=O)[nH]c4ccccc43)CC2)c1OC` (stereo not drawn), for which the inhibition was inactive: 20%.

As for `CN1CCC(Nc2ccc(Cl)cc2)CC1`, the inhibition is inactive: -4.68%.

Regarding `CCC(c1nnnn1C1CCCCC1)N1CCC(n2c(=O)[nH]c3ccccc32)CC1` (stereo not drawn), the inhibition was inactive: 16.7%.

On to `COc1cccc(C(c2nnnn2C2CCCCC2)N2CCC(n3c(=O)[nH]c4ccccc43)CC2)c1OC` (stereo not drawn), for which the inhibition is inactive: 11.8%.

Consider `CC(=O)N(c1ccccc1)C1CCNCC1`, for which the inhibition was inactive: 3.49%.

On to `COc1cc(OC)cc(C(=O)NCC2(N3CCCCC3)CCCCC2)c1`, for which the inhibition is inactive: 2.61%.

For the compound `O=c1[nH]c2ccccc2n1C1CCN(C(c2ccnc3ccccc23)c2nnnn2C2CCCCC2)CC1` (stereo not drawn), the inhibition is inactive: 6.01%.

With `Fc1ccccc1NC1CCN(Cc2ccccc2)CC1`, the inhibition is inactive: -3.04%.

With `Cc1ccc(C(=O)NCC2(N3CCCCC3)CCCCC2)o1`, the inhibition was inactive: -3.68%.

In the case of `Cc1ccc(NC2(C#N)CCN(Cc3ccccc3)CC2)cc1`, the inhibition is inactive: -1.6%.

Turning to `COc1ccc(C(c2nnnn2C2CCCCC2)N2CCC(n3c(=O)[nH]c4ccccc43)CC2)cc1` (stereo not drawn), the inhibition is inactive: -12.4%.

For the compound `CC(C)(C)n1nnnc1C(c1ccnc2ccccc12)N1CCC(n2c(=O)[nH]c3ccccc32)CC1` (stereo not drawn), the inhibition is inactive: 10.3%.

For the compound `Cc1ccccc1NC1(C#N)CCN(Cc2ccccc2)CC1`, the inhibition is inactive: 9.74%.

With `CN(C)c1ccc(C(=O)NCC2(N3CCCCC3)CCCCC2)cc1`, the inhibition is inactive: 4.29%.

Turning to `Cn1c(=O)[nH]cc(N(CCCl)CCCl)c1=O`, the inhibition is inactive: 2.1%.

In the case of `O=C(NCC1(N2CCCCC2)CCCCC1)c1ccco1`, the inhibition was inactive: 4.3%.

On to `N#Cc1ccc(C(=O)NCC2(N3CCCCC3)CCCCC2)cc1`, for which the inhibition is inactive: -9.37%.

As to `CC(C)(C)OC(=O)N1CCC(N(C(=O)c2ccccc2)c2ccc(Cl)cc2)CC1`, the inhibition was inactive: 4.82%.

In the case of `CN(C)C1(CNC(=O)c2cccc(C#N)c2)CCCCC1`, the inhibition was inactive: -0.692%.

Take `O=c1[nH]c2ccccc2n1C1CCN(C(c2ccccc2)c2nnnn2C2CCCC2)CC1` (stereo not drawn): the inhibition was inactive: 4.28%.

Regarding `CCCN1CCC(Nc2cc(OC)cc(OC)c2)CC1`, the inhibition was inactive: 8.55%.

With `Cc1cc(N(CCCl)CCCl)ccc1C=O`, the inhibition was inactive: 12.4%.

In the case of `C/C(N)=N\P(=O)(Oc1ccccc1)Oc1ccccc1`, the inhibition was inactive: 4.16%.

For `CC(C)(C)n1nnnc1C(c1cccc2ccccc12)N1CCC(n2c(=O)[nH]c3ccccc32)CC1` (stereo not drawn), the inhibition was inactive: 20.4%.

For `COc1cc(C(=O)NCC2(N3CCOCC3)CCCCC2)cc(OC)c1C`, the inhibition is inactive: 1.05%.

Consider `CCCCn1nnnc1C(c1ccccc1)N1CCC(n2c(=O)[nH]c3ccccc32)CC1` (stereo not drawn), for which the inhibition was inactive: -9.04%.

As to `O=C(NCC1(N2CCOCC2)CCCCC1)c1cc(Br)ccc1Cl`, the inhibition is inactive: 5.3%.

Take `O=c1[nH]c2ccccc2n1C1CCN(C(c2cccs2)c2nnnn2C2CCCCC2)CC1` (stereo not drawn): the inhibition is inactive: -5.31%.

For the compound `O=c1[nH]c2ccccc2n1C1CCN(C(c2ccnc3ccccc23)c2nnnn2C2CCCC2)CC1` (stereo not drawn), the inhibition was inactive: 15.9%.

As for `COc1ccc(C(=O)NCC2(N3CCOCC3)CCCCC2)cc1OC`, the inhibition is inactive: 4.92%.

Regarding `CCOC(=O)N1CCC(Nc2ccc(C)cc2)CC1`, the inhibition is inactive: -7.83%.

For `COc1cccc(C(c2nnnn2C(C)(C)C)N2CCC(n3c(=O)[nH]c4ccccc43)CC2)c1OC` (stereo not drawn), the inhibition was inactive: 7.59%.

Consider `O=c1[nH]c2ccccc2n1C1CCN(C(c2cccs2)c2nnnn2C2CCCC2)CC1` (stereo not drawn), for which the inhibition is inactive: 7.15%.

In the case of `CCCCn1nnnc1C(c1cccc(OC)c1OC)N1CCC(n2c(=O)[nH]c3ccccc32)CC1` (stereo not drawn), the inhibition was inactive: 1.6%.

Turning to `CC(C)c1ccc(NC2CCN(C(=O)OC(C)(C)C)CC2)cc1`, the inhibition is inactive: -79.5%.

Regarding `CN(C)c1cccc(C(=O)NCC2(N3CCCCC3)CCCCC2)c1`, the inhibition was inactive: 5.88%.

With `COc1ccc(CN(CCCl)CCCl)cc1Cl`, the inhibition was inactive: 0.227%.

With `O=C(NCC1(N2CCOCC2)CCCCC1)c1cc(F)c(F)cc1Cl`, the inhibition was inactive: 3.07%.

Consider `CCC(c1nnnn1C(C)(C)C)N1CCC(n2c(=O)[nH]c3ccccc32)CC1` (stereo not drawn), for which the inhibition is inactive: -8.27%.

For `COc1cc(OC)c(C(=O)NCC2(N(C)C)CCCCC2)cc1OC`, the inhibition is inactive: -2.24%.

Turning to `CCCCn1nnnc1C(c1ccnc2ccccc12)N1CCC(n2c(=O)[nH]c3ccccc32)CC1` (stereo not drawn), the inhibition is inactive: -3.35%.

Consider `CN1CCC(Nc2cccc(F)c2)CC1`, for which the inhibition was inactive: 10.2%.

`O=C(NCC1(N2CCCCC2)CCCCC1)c1cncc(Br)c1`: the inhibition was inactive: 3.75%.

As to `COc1ccc(C(c2nnnn2C2CCCC2)N2CCC(n3c(=O)[nH]c4ccccc43)CC2)cc1` (stereo not drawn), the inhibition was inactive: 14.8%.

In the case of `CCCOc1ccc(C(=O)NCC2(N(C)C)CCCCC2)cc1OC`, the inhibition is inactive: -7.08%.

In the case of `Cc1ccc(C(=O)NCC2(N(C)C)CCCCC2)o1`, the inhibition was inactive: 2.16%.

Regarding `O=C(NCC1(N2CCCCC2)CCCCC1)c1ccc(OC(F)F)cc1`, the inhibition was inactive: -0.244%.

As to `CC(C)(C)n1nnnc1C(c1ccccc1OC(F)(F)F)N1CCC(n2c(=O)[nH]c3ccccc32)CC1` (stereo not drawn), the inhibition is inactive: -4.27%.

In the case of `O=c1[nH]c2ccccc2n1C1CCN(C(c2ccccc2OC(F)(F)F)c2nnnn2C2CCCC2)CC1` (stereo not drawn), the inhibition was inactive: 3.53%.

Take `CCN1CCC(Nc2ccc(Cl)cc2)CC1`: the inhibition is inactive: 25.3%.

Take `O=C(NCC1(N2CCCCC2)CCCCC1)c1cccc([N+](=O)[O-])c1`: the inhibition was inactive: -19%.

As to `CSc1ccc(C(=O)NCC2(N3CCOCC3)CCCCC2)cc1`, the inhibition is inactive: 4.23%.

Consider `O=C(NCC1(N2CCCCC2)CCCCC1)c1cccc(C(F)(F)F)c1`, for which the inhibition is inactive: -12%.

In the case of `COc1cc(C(=O)NCC2(N3CCCCC3)CCCCC2)ccc1OC(F)F`, the inhibition is inactive: -11.4%.

Take `COc1ccc(NC2CCN(C(=O)OC(C)(C)C)CC2)cc1`: the inhibition is inactive: 0.393%.

Take `CC(C)c1ccc(C(=O)NCC2(N3CCOCC3)CCCCC2)cc1`: the inhibition is inactive: -15.4%.

As to `CN1CCN(CCOC(=O)C(O)(c2ccccc2)c2ccccc2)CC1`, the inhibition is inactive: -4.88%.

On to `CCCCn1nnnc1C(c1cccc2ccccc12)N1CCC(n2c(=O)[nH]c3ccccc32)CC1` (stereo not drawn), for which the inhibition was inactive: -6.77%.

Consider `O=C1CCN(Cc2ccccc2)CC1`, for which the inhibition was inactive: 4.22%.

For the compound `CC(C)(C)n1nnnc1C(c1ccccc1)N1CCC(n2c(=O)[nH]c3ccccc32)CC1` (stereo not drawn), the inhibition is inactive: 12.9%.

In the case of `CCOc1ccc(C)cc1CN(CCCl)CCCl`, the inhibition was inactive: 2%.

Take `CCOC(=O)N1CCC(Nc2ccc(F)cc2)CC1`: the inhibition is inactive: 3.39%.

Turning to `CCCCOc1ccc(C(=O)NCC2(N3CCOCC3)CCCCC2)cc1`, the inhibition was inactive: -2.42%.

On to `CCCCn1nnnc1C(c1cc2ccccc2o1)N1CCC(n2c(=O)[nH]c3ccccc32)CC1` (stereo not drawn), for which the inhibition was inactive: 34.1%.

As to `O=P1(N(CCCl)CCCl)SCCCS1`, the inhibition was inactive: -3.62%.

Turning to `O=C(NCC1(N2CCCCC2)CCCCC1)c1ccc(F)cc1`, the inhibition is inactive: -11.7%.

As to `O=c1[nH]c2ccccc2n1C1CCN(C(c2ccccc2)c2nnnn2C2CCCCC2)CC1` (stereo not drawn), the inhibition was inactive: 9.04%.

As for `CCOC(=O)N1CCC(Nc2cccc(C)c2)CC1`, the inhibition was inactive: -11.5%.

Regarding `COc1cc(C(=O)NCC2(N(C)C)CCCCC2)ccc1OC(F)F`, the inhibition was inactive: -5.2%.

As to `O=c1[nH]c2ccccc2n1C1CCN(C(c2cccc3ccccc23)c2nnnn2C2CCCC2)CC1` (stereo not drawn), the inhibition is inactive: 13.2%.

Take `COc1ccc(C(=O)NCC2(N3CCCCC3)CCCCC2)c(OC)c1OC`: the inhibition was inactive: -0.359%.

As to `CC(C)(C)OC(=O)N1CCC(N(C(=O)c2ccccc2)c2ccc(F)cc2)CC1`, the inhibition was inactive: 4.7%.

For `CCC(c1nnnn1C1CCCC1)N1CCC(n2c(=O)[nH]c3ccccc32)CC1` (stereo not drawn), the inhibition was inactive: -12.3%.

As to `COc1ccc(C(=O)NCC2(N3CCCCC3)CCCCC2)cc1`, the inhibition was inactive: -8.78%.

On to `CCCCn1nnnc1C(CC)N1CCC(n2c(=O)[nH]c3ccccc32)CC1` (stereo not drawn), for which the inhibition was inactive: -3.96%.

With `O=C(NCC1(N2CCCCC2)CCCCC1)c1cccs1`, the inhibition is inactive: 0.184%.

Take `CCCCn1nnnc1C(c1cccs1)N1CCC(n2c(=O)[nH]c3ccccc32)CC1` (stereo not drawn): the inhibition was inactive: 3.85%.

Take `O=C(NCC1(N2CCCCC2)CCCCC1)c1ccc(=O)[nH]c1`: the inhibition is inactive: 1.81%.

On to `Cc1cccc(NC2(C#N)CCN(Cc3ccccc3)CC2)c1`, for which the inhibition was inactive: 3.38%.

Turning to `CSc1ccccc1C(=O)NCC1(N2CCCCC2)CCCCC1`, the inhibition is inactive: 2.47%.

In the case of `Cc1cc(C)cc(N(C(=O)c2ccccc2)C2CCN(C(=O)OC(C)(C)C)CC2)c1`, the inhibition was inactive: 21.6%.

With `O=C(NCC1(N2CCCCC2)CCCCC1)c1ccc(Cl)nc1`, the inhibition is inactive: -4.66%.

In the case of `O=c1[nH]c2ccccc2n1C1CCN(C(c2ccccc2OC(F)(F)F)c2nnnn2C2CCCCC2)CC1` (stereo not drawn), the inhibition is inactive: 19.4%.

For the compound `COc1ccc(Cl)cc1C(=O)NCC1(N2CCOCC2)CCCCC1`, the inhibition was inactive: -1.35%.

Turning to `O=C(NCC1(N2CCCCC2)CCCCC1)c1ccc(Cl)s1`, the inhibition was inactive: -1.47%.

Turning to `N#CC1(Nc2ccccc2)CCN(Cc2ccccc2)CC1`, the inhibition was inactive: 0.16%.

`O=c1[nH]c2ccccc2n1C1CCN(C(c2cc3ccccc3o2)c2nnnn2C2CCCCC2)CC1` (stereo not drawn): the inhibition was inactive: -3.4%.

As to `O=C(OC1CN2CCC1CC2)C1c2ccccc2Oc2ccccc21` (stereo not drawn), the inhibition is inactive: -12.3%.

On to `CCCCn1nnnc1C(c1ccc(OC)cc1)N1CCC(n2c(=O)[nH]c3ccccc32)CC1` (stereo not drawn), for which the inhibition was inactive: 4.09%.

Turning to `CCOC(=O)N1CCC(Nc2ccc(OC)cc2)CC1`, the inhibition is inactive: 1.85%.
